Key:
[1] = Determination of polymer pKa (spectrophotometric); conditions: OD345/OD280, 50 mM Tris-HCl, pH 7.4-10.3
[2] = target: DFP-inhibited acetylcholinesterase (AChE) (Electrophorus electricus, UniProt O42275); test: Reactivation of DFP-inhibited AChE; conditions: for kobs of reactivation of DFP-inhibited AChE / reactivation level, % of the initial AChE activity: 0.4 mM oxime; for rate constant kobs of reactivation (FIG. 5B legend): 0.4 mM oxime in 50 mM phosphate pH 7.4, 22° C.; for reactivation level, % of the initial AChE activity: after 24 hours

Chains of the proteins cited; added tags and fusions are not shown. Lines headed by an entry give the natural chain unless they say otherwise; changes in a name come on top.
UniProt O42275: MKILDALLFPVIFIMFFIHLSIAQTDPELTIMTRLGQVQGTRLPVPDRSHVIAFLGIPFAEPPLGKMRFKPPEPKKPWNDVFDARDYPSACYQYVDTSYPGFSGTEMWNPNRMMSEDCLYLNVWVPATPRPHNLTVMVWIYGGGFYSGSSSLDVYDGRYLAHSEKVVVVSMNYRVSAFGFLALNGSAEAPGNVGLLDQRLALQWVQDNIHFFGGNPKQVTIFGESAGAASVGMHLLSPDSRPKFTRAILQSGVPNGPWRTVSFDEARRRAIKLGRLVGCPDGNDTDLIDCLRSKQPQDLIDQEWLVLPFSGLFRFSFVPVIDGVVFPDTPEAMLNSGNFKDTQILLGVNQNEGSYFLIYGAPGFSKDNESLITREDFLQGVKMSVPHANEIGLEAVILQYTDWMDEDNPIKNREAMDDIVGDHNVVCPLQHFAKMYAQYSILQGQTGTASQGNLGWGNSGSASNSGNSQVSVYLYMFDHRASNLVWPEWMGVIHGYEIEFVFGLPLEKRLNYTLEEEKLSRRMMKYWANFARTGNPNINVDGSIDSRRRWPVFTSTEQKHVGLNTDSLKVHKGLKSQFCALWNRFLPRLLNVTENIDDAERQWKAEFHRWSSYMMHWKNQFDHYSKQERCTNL

Substance	pKa [1]	kobs of reactivation of DFP-inhibited AChE [2] [min⁻¹]	rate constant kobs of reactivation (FIG. 5B legend) [2] [min⁻¹]	reactivation level, % of the initial AChE activity [2] [%]
N-hydroxy propyl 4-PAM iodide	8.36			
N-hydroxyethyl 4-pyridinium aldoxime bromide	8.2	0.0027	0.0034	70
4-PAM iodide		0.0034	0.0027	70
N-hydroxy propyl 4-PAM bromide	8.23			
